{"source": "patent US12251382B2", "about": "“Substituted amino-pyrimidine compound for use in a method for treatment and prevention of multiple sclerosis” (Merck Patent GmbH, priority 2018, dated 2025)", "key": {"[1]": {"test": "Phase I Part 2: plasma pharmacokinetics Day 1 and Day 14 of once daily dosing", "format": "in vivo, human", "settings": "for CL/F: geometric mean", "method": "(§1) PK analysis was performed in all subjects who received at least one dose of evobrutinib and had at least one primary PK parameter evaluable by non-compartmental methods using PHOENIX® WINNONLIN® Version 6.3 (Certara LP, Princeton, N.J., US). Serial blood samples were obtained on Day 1 pre-dose and 0.25, 0.5, 1.0, 1.5, 2, 2.5, 3, 4, 5, 6, 8, 12, 16, 24 (Day 2), 36 (Day 2), and 48 h (Day 3) post-dose during Part 1, and used to prepare plasma samples for evobrutinib PK analysis. A similar sampling schedule was undertaken in Part 2 on Days 1 and 14, with additional trough samples obtained on Days 5, 8, 11, as well at Day 17 and 18.\n(§2) PK samples were analyzed by Quintiles Bioanalytical and ADME Laboratory (Ithaca, N.Y., USA) using a validated bioanalytical liquid chromatographic assay with tandem mass spectrometric detection (UPLC-MS/MS) to determine evobrutinib concentration; the LLOQ of the assay was 0.1 ng/mL. Plasma evobrutinib concentrations and PK parameters were summarized descriptively. To test dose proportionality, PK parameters were analyzed graphically as AUC/dose and Cmax/dose and via a power model (PK parameter=α*dose^β) approach with log-transformed PK parameters as the dependent variable and log-transformed dose as the independent variable. Accumulation of evobrutinib and time dependency of PK parameters were evaluated for each dose level during Part 2 using a linear mixed-effect analysis of variance for log-transformed PK parameters with a fixed-repeated effect for day and random effect for subject."}, "[2]": {"test": "Phase I Part 1: plasma pharmacokinetics after single oral dose", "format": "in vivo, human", "settings": "for CL/F: geometric mean; for Tmax: median", "method": "as §1, §2"}, "[3]": {"system": "human patients suffering from relapsing multiple sclerosis (RMS)", "test": "Phase II RMS study: brain MRI (Gd+ T1 lesions, T2 lesions)", "format": "in vivo", "method": "(§3) This study was designed to examine the effects of evobrutinib in human patients suffering from relapsing multiple sclerosis (RMS) in a phase II clinical study. The study was conducted as a randomized, double-blind, placebo-controlled study in subjects with RMS, with a parallel, open-label active control group (Tecfidera) involving 5 treatment groups with 3 doses of evobrutinib, placebo, and active control (Tecfidera). The assessing Investigator and central MRI reader were treatment blinded.\n(§4) The study consisted of 4 major periods: (i) a Screening period of 4 weeks, (ii) active treatment with 3 dose groups of evobrutinib, active control (Tecfidera), or placebo for 24 weeks, (iii) a 24-week extension on active treatment with evobrutinib or active control (Tecfidera) for 24 weeks, where subjects on placebo were switched to evobrutinib, and (iv) an optional OLE Period. At the end of the 48-week main study, subjects were in 1 of 4 treatment groups (evobrutinib 25 mg daily, 75 mg once daily, or 75 mg twice daily or Tecfidera). The study protocol specified that (i) all subjects who choose to enter the OLE were to be switched to active treatment with evobrutinib at a dose of 75 mg once daily or to the eventual Phase III dose when decided, (ii) subjects transitioning from Tecfidera were to complete a washout period of at least 4 weeks prior to initiating evobrutinib treatment in the OLE Period, (iii) following completion or early termination of treatment, subjects were to return after 4 weeks for safety evaluation, and (iv) placebo subjects were to be switched to the 25 mg evobrutinib once daily dose after Week 24. Patients switching from the reference arm (dimethyl fumarate) to evobrutinib at week 48 were to undergo a 4-8 week washout.\n(§5) The protocol specified that subjects received 25 mg once daily, 75 mg once daily, or 75 mg twice daily evobrutinib or placebo administered as tablets for 168 days. To maintain blinding for placebo and evobrutinib, subjects self-administered study medication at a schedule similar to the 75 mg evobrutinib twice daily dosing schedule (i.e., 3 tablets twice daily). At the end of the 24-week treatment period, the placebo group was to be switched to evobrutinib at a dose of 25 mg once daily; however, flexibility was maintained to allow adjusting this dose based on data from the primary analysis.\nThe protocol specified that subjects self-administered the IMP at a set time each day (every 12 hours ±2 hours). Subjects were to take their daily dose more than 1 hour prior to a meal or snack and more than 2 hours after a meal or snack. Clear fluids were allowed at any time. On trial visit days, the IMP was to be administered during the trial visit after the scheduled trial visit procedures (other than post-treatment PK/PD sampling) are completed.\nEligible subjects were randomized 1:1:1:1:1 to treatment with placebo, low-dose evobrutinib (25 mg once daily), mid-dose evobrutinib (75 mg once daily), high-dose evobrutinib (75 mg twice daily), or Tecfidera (administered twice daily at a final dose of 240 mg), through a central randomization process by an IWRS prior to dosing on Day 1. Stratification occurred by region (USA or Western Europe, Eastern Europe and BTKO capable, Eastern Europe and not BTKO capable, and RoW). For the first 7 days, Tecfidera was administered orally at 120 mg twice daily. Following this and for the duration of treatment, Tecfidera was administered orally at 240 mg twice daily. All subjects who choose to enter the OLE Period were to receive open-label evobrutinib 75 mg once daily or the eventual Phase III dose.\nThe protocol specified that MRI scans were to be performed at Screening, at 4-week intervals from Week 12 to 24, and at the End of Treatment Visit at Week 48 (including for subjects receiving Tecfidera who choose to enter the OLE Period). […]"}, "[4]": {"system": "human patients suffering from relapsing multiple sclerosis (RMS)", "test": "Phase II RMS study: qualified relapse assessment (ARR, relapse-free status)", "format": "in vivo", "settings": "for Qualified relapse rate ratio based on NB model (vs placebo): 24 weeks; for Odds ratio of being relapse-free vs placebo, based on logistic model: Week 24", "method": "as §3, §4, §5\nSubjects were assessed for MS relapse at visits beginning at Week 4. Relapse was also assessed at any Unscheduled Visit for Neurological Worsening and Relapse Assessment. For subjects in the OLE Period, MS relapse was assessed at all visits. A qualifying relapse was defined as new, worsening or recurrent neurological symptoms attributed to MS that last for at least 24 hours without fever or infection, or adverse reaction to prescribed medication, preceded by a stable or improving neurological status of at least 30 days. The relapse must have been accompanied by new clinical signs (i.e., changes in the neurological examination or an increase in EDSS score).\nThe protocol specified that all cases of potential relapse were to be objectively confirmed by the Investigator regardless of whether they were identified during a scheduled or unscheduled visit. Any assessments needed to confirm the relapse were to be performed, and details of the relapse were to be documented within the relevant section(s) of the eCRF.\nKey secondary endpoints to evaluate the efficacy and safety of evobrutinib compared to placebo were: • Annualized relapse rate (ARR), based on protocol-defined qualified relapses, at Week 24 • Qualified relapse-free status at Week 24 • Change from Baseline in EDSS at Week 24 • Safety as assessed by the nature, severity, and occurrence of AEs; vital signs; ECGs; absolute concentrations and change from Baseline in Ig levels; absolute numbers and change from Baseline in B cells; and clinical laboratory safety parameters (duration of placebo treatment group limited to 24 weeks). Additional Secondary Endpoints […]"}}, "data": [{"smiles": "C=CC(=O)N1CCC(CNc2ncnc(N)c2-c2ccc(Oc3ccccc3)cc2)CC1", "note": "[Evobrutinib, 1-(4-(((6-amino-5-(4-phenoxyphenyl)pyrimidin-4-yl)amino)methyl)piperidin-1-yl)prop-2-en-1-one]", "values": [{"measurement": "CL/F", "setting": "[1]; multiple-dose study Day 1, 25 mg", "result": "3,390 mL/min"}, {"measurement": "Tmax", "setting": "[1]; multiple-dose study Day 1, 25 mg, median", "result": 30, "unit": "min"}, {"measurement": "CL/F", "setting": "[1]; multiple-dose study Day 1, 200 mg", "result": "3,000 mL/min"}, {"measurement": "Time to peak concentrations", "setting": "[2]; humans", "result": "~0.5", "unit": "h"}, {"measurement": "CL/F", "setting": "[2]; single dose 25 mg", "result": "4,000 mL/min"}, {"measurement": "Tmax", "setting": "[2]; single dose 25 mg", "result": 48, "unit": "min"}, {"measurement": "CL/F", "setting": "[2]; single dose 50 mg", "result": "2,550 mL/min"}, {"measurement": "CL/F", "setting": "[2]; single dose 100 mg", "result": "3,840 mL/min"}, {"measurement": "CL/F", "setting": "[2]; single dose 200 mg", "result": "3,900 mL/min"}, {"measurement": "CL/F", "setting": "[2]; single dose 350 mg", "result": "3,050 mL/min"}, {"measurement": "Tmax", "setting": "[2]; single dose 350 mg", "result": 60, "unit": "min"}, {"measurement": "CL/F", "setting": "[2]; single dose 500 mg", "result": "2,590 mL/min"}, {"measurement": "Gd+ T1 Lesion Rate Ratio vs placebo (negative binomial model)", "setting": "[3]; 25 mg QD", "result": 1.54}, {"measurement": "New or enlarging T2 Lesion Rate Ratio vs placebo (negative binomial model)", "setting": "[3]; 25 mg QD", "result": 1.32}, {"measurement": "Gd+ T1 Lesion Rate Ratio vs placebo (negative binomial model)", "setting": "[3]; 75 mg BID", "result": 0.48}, {"measurement": "New or enlarging T2 Lesion Rate Ratio vs placebo (negative binomial model)", "setting": "[3]; 75 mg BID", "result": 0.44}, {"measurement": "Gd+ T1 Lesion Rate Ratio vs placebo (negative binomial model)", "setting": "[3]; 75 mg QD", "result": 0.38}, {"measurement": "New or enlarging T2 Lesion Rate Ratio vs placebo (negative binomial model)", "setting": "[3]; 75 mg QD", "result": 0.53}, {"measurement": "Qualified relapse rate ratio based on NB model (vs placebo)", "setting": "[4]; 25 mg QD", "result": 1.75}, {"measurement": "Odds ratio of being relapse-free vs placebo, based on logistic model", "setting": "[4]; 25 mg QD", "result": 0.76}, {"measurement": "Qualified relapse rate ratio based on NB model (vs placebo)", "setting": "[4]; 75 mg BID", "result": 0.26}, {"measurement": "Odds ratio of being relapse-free vs placebo, based on logistic model", "setting": "[4]; 75 mg BID", "result": 1.83}, {"measurement": "Qualified relapse rate ratio based on NB model (vs placebo)", "setting": "[4]; 75 mg QD", "result": 0.36}, {"measurement": "Odds ratio of being relapse-free vs placebo, based on logistic model", "setting": "[4]; 75 mg QD", "result": 2.43}]}]}
